System: HT29, HepG2, QGP-1, A431, MCF-7, A2780
Assay: Inhibition of cell proliferation measured by MTT test
Format: cell-based, human
Conditions: range from different cell lines, peptide-dendrimer conjugates (Table 7)
Description: For cytotoxicty measurements, 2×10^5 cells were incubated with 1 ml culture medium containing increasing concentrations of test substances. After 72 hs treatment, cell number, viability and cell diameter as parameter of apoptotic processes were analyzed in a cell counter and analyzer system (CASY®, Schärfe Systems). In addition, drug cytotoxicity was assessed in vitro using the MTT assay (cellular reduction of 3-(4,5-dimethylthiazol-2-yl)-2,5-diphenyltetrazolium bromide) as a test for metabolic activity of the cells. 1×10^4 cells per well were seeded in 96-well plates in 100 μl culture medium containing increasing concentration of the test substance. 10 μl MTT (5 mg/ml in PBS, obtained from Sigma) was added to each well and the plates were incubated for 4 hrs, 24 hrs, 48 hrs or up to 72 h. The resulting formazan product was dissolved with acid isopropanol and the absorbance at a wavelength of 570 nm (Ex570) was read on a Microplate Spectrophotometer (Anthos htII, Microsystems). In a couple of experiments, medium with test substances was removed after 48 hs, cells were counted and identical cell numbers with new medium without test substances were seeded in new plates. MTT assay was performed after further incubation for 72 hours.
Cell culture measurements were performed as described in example 16.

d02-P7: peptide P7 conjugated to maleimido dendrimer d02 (CPKVVILKKATAYILSVQAEEQKL; conjugated to maleimido dendrimer d02)
IC50: 1100 to 1800 nM

Source: patent US11045560B2, “Therapeutic conjugates with sulfated dendrimers for intracellular targeting” (IC DISCOVERY GMBH, priority 2014, dated 2021)
